Measured intrinsic clearance values of organic chemicals

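OPERA's authors assembled the values from existing databases and did not measure them anew. One number stands for a compound and property, with no spread given. How each value was measured is not recorded, so precision varies. A value may pool stereoisomers or salt forms, and the file does not say which form was measured. Unmarked limits or estimates from the upstream databases cannot be ruled out.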

Intrinsic clearance (human, µL/min per 10^6 hepatocytes): higher is faster turnover, and 0 stands for none detected.

{"smiles": "COP(=O)(OC)SCn1c(=O)oc2cc(Cl)cnc21", "name": "Azamethiphos", "intrinsic clearance (µL/min/10^6 cells)": "429"}
{"smiles": "CC(C)Oc1cc(-n2nc(C(C)(C)C)oc2=O)c(Cl)cc1Cl", "name": "Oxadiazon", "intrinsic clearance (µL/min/10^6 cells)": "0"}
{"smiles": "CCCC(=NOCC)C1=C(O)CC(CC(C)SCC)CC1=O", "stereo": "stereo unspecified", "name": "Sethoxydim", "intrinsic clearance (µL/min/10^6 cells)": "11.87"}
{"smiles": "Cc1ccc(N)cc1N", "name": "2,4-diaminotoluene", "intrinsic clearance (µL/min/10^6 cells)": "0"}
{"smiles": "O=c1[nH]c2ccccc2n1CCCN1CCC(n2c(=O)[nH]c3cc(Cl)ccc32)CC1", "name": "Domperidone", "intrinsic clearance (µL/min/10^6 cells)": "19.08"}
{"smiles": "O=S(=O)([O-])C(F)(F)C(F)(F)C(F)(F)C(F)(F)C(F)(F)C(F)(F)C(F)(F)C(F)(F)F.[K+]", "name": "Heptadecafluorooctanesulfonic acid potassium salt", "intrinsic clearance (µL/min/10^6 cells)": "0"}
{"smiles": "Fc1ccc(Oc2ccnc3cc(Cl)cc(Cl)c23)cc1", "name": "Quinoxyfen", "intrinsic clearance (µL/min/10^6 cells)": "0"}
{"smiles": "CCOP(=S)(OCC)Oc1nc(Cl)n(C(C)C)n1", "name": "Isazofos", "intrinsic clearance (µL/min/10^6 cells)": "19.53"}
{"smiles": "N#Cc1cc(Br)c(O)c(Br)c1", "name": "Bromoxynil", "intrinsic clearance (µL/min/10^6 cells)": "7.87"}
{"smiles": "CCc1ccc(C(=O)NN(C(=O)c2cc(C)cc(C)c2)C(C)(C)C)cc1", "name": "Tebufenozide", "intrinsic clearance (µL/min/10^6 cells)": "22.4"}
{"smiles": "N#C/N=C1SCCN1Cc1ccc(Cl)[n]c1", "intrinsic clearance (µL/min/10^6 cells)": "2.57"}
{"smiles": "CN1CSC(=S)N(C)C1", "name": "Dazomet", "intrinsic clearance (µL/min/10^6 cells)": "12.42"}
{"smiles": "CCOP(=S)(OCC)SCSP(=S)(OCC)OCC", "name": "Ethion", "intrinsic clearance (µL/min/10^6 cells)": "10.41"}
{"smiles": "CC(C)(C)c1cc(C(C)(C)C)c(O)c(C(C)(C)C)c1", "name": "2,4,6-tris(tert-butyl)phenol", "intrinsic clearance (µL/min/10^6 cells)": "40.7"}
{"smiles": "Nc1ccc2ccccc2c1", "name": "2-naphthylamine", "intrinsic clearance (µL/min/10^6 cells)": "18.5"}
{"smiles": "COc1ccc(C(=CC(=O)N2CCOCC2)c2ccc(Cl)cc2)cc1OC", "name": "Dimethomorph", "intrinsic clearance (µL/min/10^6 cells)": "20.3"}
{"smiles": "CSC1=N[C@@](C)(c2ccccc2)C(=O)N1Nc1ccccc1", "name": "Fenamidone", "intrinsic clearance (µL/min/10^6 cells)": "17.74"}
{"smiles": "CCN(CC)CCN1C(=O)[C@@](O)(c2ccccc2Cl)c2c1cc(C(N)=O)cc2C(F)(F)F", "intrinsic clearance (µL/min/10^6 cells)": "13.18"}
{"smiles": "CNC(=O)Oc1cccc2c1OC(C)(C)C2", "name": "Carbofuran", "intrinsic clearance (µL/min/10^6 cells)": "0"}
{"smiles": "O=C(NC(=O)c1c(F)cccc1F)Nc1ccc(OC(F)(F)C(F)OC(F)(F)F)c(Cl)c1", "stereo": "stereo unspecified", "name": "Novaluron", "intrinsic clearance (µL/min/10^6 cells)": "2.87"}
{"smiles": "Clc1nc(Cl)nc(Nc2ccccc2Cl)n1", "name": "Anilazine", "intrinsic clearance (µL/min/10^6 cells)": "22.5"}
{"smiles": "O=C(O)C1C2CCC(O2)C1C(=O)O", "stereo": "stereo unspecified", "name": "Endothal", "intrinsic clearance (µL/min/10^6 cells)": "0"}
{"smiles": "Cc1ccccc1", "name": "Toluene", "intrinsic clearance (µL/min/10^6 cells)": "3.499"}
{"smiles": "COc1cc(OC)nc(NC(=O)[N-]S(=O)(=O)c2ncccc2OCC(F)(F)F)n1.[Na+]", "name": "Trifloxysulfuron-sodium", "intrinsic clearance (µL/min/10^6 cells)": "0"}
{"smiles": "Cc1cc(C(C)(C)c2ccc(O)c(C)c2)ccc1O", "name": "3,3'-dimethylbisphenol a", "intrinsic clearance (µL/min/10^6 cells)": "191"}
{"smiles": "[O-][N+](=O)/N=C1NCCN1Cc1ccc(Cl)[n]c1", "intrinsic clearance (µL/min/10^6 cells)": "2.81"}
{"smiles": "Nc1ccc([N+](=O)[O-])cc1", "name": "4-nitroaniline", "intrinsic clearance (µL/min/10^6 cells)": "23.6"}
{"smiles": "CCOc1nc(NC)nc(NC(=O)NS(=O)(=O)c2ccccc2C(=O)OC)n1", "name": "Ethametsulfuron methyl", "intrinsic clearance (µL/min/10^6 cells)": "1.08"}
{"smiles": "CCN1CCC2(CC1)COc1cc3c(cc12)N(C(=O)c1ccc(-c2ccc(-c4nnc(C)o4)cc2C)cc1)CC3.Cl", "intrinsic clearance (µL/min/10^6 cells)": "4.65"}
{"smiles": "O=[N+]([O-])c1ccc(Cl)cc1", "name": "1-chloro-4-nitrobenzene", "intrinsic clearance (µL/min/10^6 cells)": "400"}
{"smiles": "CS/C(C)=N/OC(=O)N(C)SN(C)C(=O)O/N=C(\\C)SC", "name": "Thiodicarb", "intrinsic clearance (µL/min/10^6 cells)": "839"}
{"smiles": "c1ccc2c(c1)-c1cccc3cccc-2c13", "name": "Fluoranthene", "intrinsic clearance (µL/min/10^6 cells)": "8.064"}
{"smiles": "CC1(C)CNC(=NN=C(/C=C/c2ccc(C(F)(F)F)cc2)/C=C/c2ccc(C(F)(F)F)cc2)NC1", "name": "Hydramethylnon", "intrinsic clearance (µL/min/10^6 cells)": "4.38"}
{"smiles": "CCOP(=S)(OCC)SCCSCC", "name": "Disulfoton", "intrinsic clearance (µL/min/10^6 cells)": "412"}
{"smiles": "COc1ccc(-c2ccccc2)cc1NNC(=O)OC(C)C", "name": "Bifenazate", "intrinsic clearance (µL/min/10^6 cells)": "41.15"}

A selection of 4 entries from above:

| structure (SMILES) | name | intrinsic clearance (µL/min/10^6 cells) |
|---|---|---|
| Cc1ccccc1 | Toluene | 3.499 |
| O=C(O)C1C2CCC(O2)C1C(=O)O (stereo unspecified) | Endothal | 0 |
| Nc1ccc2ccccc2c1 | 2-naphthylamine | 18.5 |
| N#Cc1cc(Br)c(O)c(Br)c1 | Bromoxynil | 7.87 |

Values as listed in the OPERA 2.9 repository of K. Mansouri.